The values below are quoted from earlier work in publication PMC8880779, “Design and Experimental Evaluation of a Peptide Antagonist against Amyloid β(1–42) Interactions with Calmodulin and Calbindin-D28k” (International Journal of Molecular Sciences, 2022).

In this data set the target is Calmodulin (UniProt P0DP23). To be noted: cited from earlier work.

As for “Amyloid β(1-42) 1-42 (from UniProt P05067)”, the dissociation constant Kd is 1 nM.

One may read the Kd as the free concentration of one partner at which half of the binding sites on the other are occupied at equilibrium, for simple one-to-one binding.
